Measurements reported in patent US20230014151A1, “COMBINATION ANTIVIRAL THERAPY FOR MEASLES” (The Trustees of Columbia University in the City of New York, priority 2019, published 2023).

Amino acid sequences for entries named in this document (tags omitted). Residues count along the entry.
UniProt Q786F3, 24-112: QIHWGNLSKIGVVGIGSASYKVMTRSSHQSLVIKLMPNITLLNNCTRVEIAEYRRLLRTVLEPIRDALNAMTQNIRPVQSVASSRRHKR
UniProt Q786F3, 113-550: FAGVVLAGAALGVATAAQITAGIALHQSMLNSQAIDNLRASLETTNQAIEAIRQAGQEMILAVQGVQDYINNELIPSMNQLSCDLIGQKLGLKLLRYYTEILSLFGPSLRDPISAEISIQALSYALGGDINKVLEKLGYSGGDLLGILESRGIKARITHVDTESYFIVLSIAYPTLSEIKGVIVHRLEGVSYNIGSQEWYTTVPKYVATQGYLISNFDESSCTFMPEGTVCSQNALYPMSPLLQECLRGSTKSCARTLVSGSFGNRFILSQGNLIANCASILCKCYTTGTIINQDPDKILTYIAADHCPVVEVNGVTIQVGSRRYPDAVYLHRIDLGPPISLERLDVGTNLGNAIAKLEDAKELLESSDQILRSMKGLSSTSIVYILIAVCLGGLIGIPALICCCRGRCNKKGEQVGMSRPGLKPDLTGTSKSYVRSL

Legend:
[1] = system: HEK293T cells expressing MeV F; test: localization of peptide in HEK293T cells expressing MeV F; type: cell-based, human; conditions: 1 μM peptide, 60 min at 37° C.
Description: HEK293T cells expressing MeV F were incubated with peptide (1 μM) for 60 min at 37° C. F protein and HRC-FIP peptide were stained with Alexa Fluor 488 (green, x-axis) and Alexa Fluor 594 (red, y-axis), respectively. Representative of three separate experiments. […] FIP alone (without cholesterol) localizes the HRC to F expressing cells but with lower HRC signal (B). When lipid is present but FIP is missing (C) the HRC is not as specifically localized to the F-expressing cells.
FIGS. 92-93 show FIP-HRC targets MeV F expressing cells. […] HEK293T cell cultures were incubated with peptide (1 μM) for 60 min, at 37° C. F protein and HRC-FIP peptide were stained with Alexa Fluor 488 (green) and Alexa Fluor 594 (red), respectively.

[2] = system: MeV “WTFb” strain; test: in vivo efficacy, intranasal peptides in MeV-infected cotton rats; conditions: intranasal 24 h and 12 h before infection, 5 m/kg dose, 4 days post-infection
Description: FIGS. 84-93 further describe the invention. […] Intranasal administration of MeV-derived peptides protects cotton rats from MV infection. Cotton rats (n=4) were infected intranasally with MeV “WTFb” strain. Treatment was given intranasally 24 h and 12 h before infection in 100 ul (5 m/kg dose of peptides). The animals were euthanized 4 days post-infection.

[3] = molecular target: T1, MeV F wild-type (Measles virus, UniProt Q786F3); test: thermal stability of cell-expressed MeV F, pre-fusion conformation specific mAb staining; type: cell-based
T1 construct: expressed in transfected cells; host or cells: 293T
Description: Thermal stability of the MeV F wild-type in presence of FIP, HRC, and FIP-HRC peptides. 293T cells expressing MeV F (“WT”) were incubated overnight at 37° C. The cells were then placed at 55° C. for 10 minutes in the presence of increasing concentrations of the indicated peptides. The cells were then incubated at 4° C. with pre-fusion conformation specific mouse mAb (77.4). Secondary antibody anti-mouse conjugated with Alexa 488 was used for detection. Stained cells were identified using a cell analyzer high content image system.
Concentration at which the pre-fusion epitope is 50% (“stable concentration50” or SC50) and 90% (“stable concentration90” or SC90) of the samples not incubated at 10 minutes at 55° C.
Concentration at which the pre-fusion epitope is 50% (“stable concentration50” or SC50) and 90% (“stable concentration900” or SC90) of the samples not incubated at 10 minutes at 55° C.
Cell surface staining with F-conformation-specific mAbs. 293T cells transiently transfected with viral glycoprotein constructs were incubated overnight at 37° C. in complete medium (DMEM, 10% FBS). Thereafter, cells were incubated with mouse monoclonal antibodies (mAbs) that specifically detect MeV F in its pre-fusion conformation (1:1,000) for 1 h on ice. […] Percentages of positively recognized cells were determined using Cell Profiler.

[4] = molecular target: viral glycoproteins (H and F); CD150; test: beta-galactosidase complementation-based fusion assay, CD150 target cells
[5] = molecular target: viral glycoproteins (H and F); Nectin-4 (Measles virus, UniProt Q786F3); test: beta-galactosidase complementation-based fusion assay, Nectin-4 target cells
[6] = system: vesicular stomatitis virus (VSV); conditions: 16 h

Compound | localization to F-expressing cells, flow cytometry [1] | localization with F protein, fluorescence imaging [1] | MeV titration of lung homogenates [2] | percentage of F in pre-fusion state (conformational antibody binding) ([3]; 293T cells expressing MeV F, 55° C. for 10 minutes, increasing peptide concentrations) | F stabilization, SC50 and SC90 ([3]; MeV F (wt), 10 minutes at 55° C.) | IC50 [4] | IC90 ([4]; read-out: CD150 IC90) | IC50 [5] | IC90 [5] | IC90 ([5]; read-out: Nectin4 IC90) | IC50 [6]
CC[C@H](C)[C@H](NC(=O)[C@H](C)NC(=O)[C@H](CC(N)=O)NC(=O)CNC(=O)[C@H](CC(C)C)NC(=O)[C@H](CC(N)=O)NC(=O)[C@@H](NC(=O)CNC(=O)[C@@H](NC(=O)[C@H](CC(=O)O)NC(=O)[C@H](CC(C)C)NC(=O)[C@H](CCCNC(=N)N)NC(=O)[C@H](CCC(=O)O)NC(=O)[C@H](CC(C)C)NC(=O)[C@H](CO)NC(=O)[C@@H](NC(=O)[C@@H]1CCCN1C(=O)[C@@H]1CCCN1C(=O)CNC(=O)[C@H](CO)NC(=O)CNC(=O)[C@H](CO)NC(=O)CNC(=O)CNC(=O)[C@H](Cc1ccccc1)NC(=O)[C@@H](Cc1ccccc1)NC(=O)OCc1ccccc1)[C@@H](C)CC)C(C)C)[C@@H](C)O)C(=O)N[C@@H](C)C(=O)N[C@@H](CCCCN)C(=O)N[C@@H](CC(C)C)C(=O)N[C@@H](CCC(=O)O)C(=O)N[C@@H](CC(=O)O)C(=O)N[C@@H](C)C(=O)N[C@@H](CCCCN)C(=O)N[C@@H](CCC(=O)O)C(=O)N[C@@H](CC(C)C)C(=O)N[C@@H](CC(C)C)C(=O)N[C@@H](CCC(=O)O)C(=O)N[C@@H](CO)C(=O)N[C@@H](CO)C(=O)N[C@@H](CC(=O)O)C(=O)N[C@@H](CCC(N)=O)C(=O)N[C@H](C(=O)N[C@@H](CC(C)C)C(=O)N[C@@H](CCCNC(=N)N)C(=O)NCC(=O)N[C@@H](CO)C(=O)NCC(=O)N[C@@H](CO)C(=O)NCC(=O)N[C@@H](CSC1CC(=O)N(CCCC(=O)NCCOCCOCCOCCOCCC(=O)NCCN(CCNC(=O)CCOCCOCCOCCOCCNC(=O)CCCN2C(=O)CC(SC[C@H](NC(=O)CNC(=O)[C@H](CO)NC(=O)CNC(=O)[C@H](CO)NC(=O)CNC(=O)[C@H](CCCNC(=N)N)NC(=O)[C@H](CC(C)C)NC(=O)[C@@H](NC(=O)[C@H](CCC(N)=O)NC(=O)[C@H](CC(=O)O)NC(=O)[C@H](CO)NC(=O)[C@H](CO)NC(=O)[C@H](CCC(=O)O)NC(=O)[C@H](CC(C)C)NC(=O)[C@H](CC(C)C)NC(=O)[C@H](CCC(=O)O)NC(=O)[C@H](CCCCN)NC(=O)[C@H](C)NC(=O)[C@H](CC(=O)O)NC(=O)[C@H](CCC(=O)O)NC(=O)[C@H](CC(C)C)NC(=O)[C@H](CCCCN)NC(=O)[C@H](C)NC(=O)[C@@H](NC(=O)[C@H](C)NC(=O)[C@H](CC(N)=O)NC(=O)CNC(=O)[C@H](CC(C)C)NC(=O)[C@H](CC(N)=O)NC(=O)[C@@H](NC(=O)CNC(=O)[C@@H](NC(=O)[C@H](CC(=O)O)NC(=O)[C@H](CC(C)C)NC(=O)[C@H](CCCNC(=N)N)NC(=O)[C@H](CCC(=O)O)NC(=O)[C@H](CC(C)C)NC(=O)[C@H](CO)NC(=O)[C@@H](NC(=O)[C@@H]3CCCN3C(=O)[C@@H]3CCCN3C(=O)CNC(=O)[C@H](CO)NC(=O)CNC(=O)[C@H](CO)NC(=O)CNC(=O)CNC(=O)[C@H](Cc3ccccc3)NC(=O)[C@@H](Cc3ccccc3)NC(=O)OCc3ccccc3)[C@@H](C)CC)C(C)C)[C@@H](C)O)[C@@H](C)CC)[C@@H](C)CC)C(=O)O)C2=O)CCO[C@H]2CC[C@@]3(C)C(=CC[C@H]4[C@@H]5CC[C@H]([C@H](C)CCCC(C)C)[C@@]5(C)CC[C@@H]43)C2)C1=O)C(=O)O)[C@@H](C)CC (single isomer, unassigned) | HRC signal is directly proportional to the F signal | colocalization | most potent inhibitor | most effective at stabilizing F in pre-fusion state | most effective F stabilizer | 25.7 ± 11.7 nM | 124 ± 10 nM | 23 ± 13.2 nM | 105 ± 56.1 nM | 105 ± 56.1 nM | –
CC[C@H](C)[C@H](NC(=O)[C@H](C)NC(=O)[C@H](CC(N)=O)NC(=O)CNC(=O)[C@H](CC(C)C)NC(=O)[C@H](CC(N)=O)NC(=O)[C@@H](NC(=O)CNC(=O)[C@@H](NC(=O)[C@H](CC(=O)O)NC(=O)[C@H](CC(C)C)NC(=O)[C@H](CCCNC(=N)N)NC(=O)[C@H](CCC(=O)O)NC(=O)[C@H](CC(C)C)NC(=O)[C@H](CO)NC(=O)[C@@H](NC(=O)[C@@H]1CCCN1C(=O)[C@@H]1CCCN1C(=O)CNC(=O)[C@H](CO)NC(=O)CNC(=O)[C@H](CO)NC(=O)CNC(=O)CNC(=O)[C@H](Cc1ccccc1)NC(=O)[C@@H](Cc1ccccc1)NC(=O)OCc1ccccc1)[C@@H](C)CC)C(C)C)[C@@H](C)O)C(=O)N[C@@H](C)C(=O)N[C@@H](CCCCN)C(=O)N[C@@H](CC(C)C)C(=O)N[C@@H](CCC(=O)O)C(=O)N[C@@H](CC(=O)O)C(=O)N[C@@H](C)C(=O)N[C@@H](CCCCN)C(=O)N[C@@H](CCC(=O)O)C(=O)N[C@@H](CC(C)C)C(=O)N[C@@H](CC(C)C)C(=O)N[C@@H](CCC(=O)O)C(=O)N[C@@H](CO)C(=O)N[C@@H](CO)C(=O)N[C@@H](CC(=O)O)C(=O)N[C@@H](CCC(N)=O)C(=O)N[C@H](C(=O)N[C@@H](CC(C)C)C(=O)N[C@@H](CCCNC(=N)N)C(=O)NCC(=O)N[C@@H](CO)C(=O)NCC(=O)N[C@@H](CO)C(=O)NCC(=O)N[C@@H](CSC1CC(=O)N(CCCC(=O)NCCOCCOCCOCCOCCC(=O)NCCN(CCNC(=O)CCOCCOCCOCCOCCNC(=O)CCCN2C(=O)CC(SC[C@H](NC(=O)CNC(=O)[C@H](CO)NC(=O)CNC(=O)[C@H](CO)NC(=O)CNC(=O)[C@H](CCCNC(=N)N)NC(=O)[C@H](CC(C)C)NC(=O)[C@@H](NC(=O)[C@H](CCC(N)=O)NC(=O)[C@H](CC(=O)O)NC(=O)[C@H](CO)NC(=O)[C@H](CO)NC(=O)[C@H](CCC(=O)O)NC(=O)[C@H](CC(C)C)NC(=O)[C@H](CC(C)C)NC(=O)[C@H](CCC(=O)O)NC(=O)[C@H](CCCCN)NC(=O)[C@H](C)NC(=O)[C@H](CC(=O)O)NC(=O)[C@H](CCC(=O)O)NC(=O)[C@H](CC(C)C)NC(=O)[C@H](CCCCN)NC(=O)[C@H](C)NC(=O)[C@@H](NC(=O)[C@H](C)NC(=O)[C@H](CC(N)=O)NC(=O)CNC(=O)[C@H](CC(C)C)NC(=O)[C@H](CC(N)=O)NC(=O)[C@@H](NC(=O)CNC(=O)[C@@H](NC(=O)[C@H](CC(=O)O)NC(=O)[C@H](CC(C)C)NC(=O)[C@H](CCCNC(=N)N)NC(=O)[C@H](CCC(=O)O)NC(=O)[C@H](CC(C)C)NC(=O)[C@H](CO)NC(=O)[C@@H](NC(=O)[C@@H]3CCCN3C(=O)[C@@H]3CCCN3C(=O)CNC(=O)[C@H](CO)NC(=O)CNC(=O)[C@H](CO)NC(=O)CNC(=O)CNC(=O)[C@H](Cc3ccccc3)NC(=O)[C@@H](Cc3ccccc3)NC(=O)OCc3ccccc3)[C@@H](C)CC)C(C)C)[C@@H](C)O)[C@@H](C)CC)[C@@H](C)CC)C(=O)O)C2=O)CCO[C@H]2CC[C@@]3(C)C(=CC[C@H]4[C@@H]5CC[C@H]([C@H](C)CCCC(C)C)[C@@]5(C)CC[C@@H]43)C2)C1=O)C(=O)O)[C@@H](C)CC (single isomer, unassigned) [FIP HRC] | – | – | – | – | – | – | – | – | – | – | > 5000 nM

Read-outs that look alike come from different tables or passages of the source.
